Measured values taken from US20220387491A1, “METHODS OF MAKING CELLULAR THERAPIES” (Secura Bio, Inc., priority 2019, published 2022).

Amino acid sequences for entries named in this document (tags omitted). A change or cut given only in a name is not applied to a line headed by its entry.
UniProt O00329: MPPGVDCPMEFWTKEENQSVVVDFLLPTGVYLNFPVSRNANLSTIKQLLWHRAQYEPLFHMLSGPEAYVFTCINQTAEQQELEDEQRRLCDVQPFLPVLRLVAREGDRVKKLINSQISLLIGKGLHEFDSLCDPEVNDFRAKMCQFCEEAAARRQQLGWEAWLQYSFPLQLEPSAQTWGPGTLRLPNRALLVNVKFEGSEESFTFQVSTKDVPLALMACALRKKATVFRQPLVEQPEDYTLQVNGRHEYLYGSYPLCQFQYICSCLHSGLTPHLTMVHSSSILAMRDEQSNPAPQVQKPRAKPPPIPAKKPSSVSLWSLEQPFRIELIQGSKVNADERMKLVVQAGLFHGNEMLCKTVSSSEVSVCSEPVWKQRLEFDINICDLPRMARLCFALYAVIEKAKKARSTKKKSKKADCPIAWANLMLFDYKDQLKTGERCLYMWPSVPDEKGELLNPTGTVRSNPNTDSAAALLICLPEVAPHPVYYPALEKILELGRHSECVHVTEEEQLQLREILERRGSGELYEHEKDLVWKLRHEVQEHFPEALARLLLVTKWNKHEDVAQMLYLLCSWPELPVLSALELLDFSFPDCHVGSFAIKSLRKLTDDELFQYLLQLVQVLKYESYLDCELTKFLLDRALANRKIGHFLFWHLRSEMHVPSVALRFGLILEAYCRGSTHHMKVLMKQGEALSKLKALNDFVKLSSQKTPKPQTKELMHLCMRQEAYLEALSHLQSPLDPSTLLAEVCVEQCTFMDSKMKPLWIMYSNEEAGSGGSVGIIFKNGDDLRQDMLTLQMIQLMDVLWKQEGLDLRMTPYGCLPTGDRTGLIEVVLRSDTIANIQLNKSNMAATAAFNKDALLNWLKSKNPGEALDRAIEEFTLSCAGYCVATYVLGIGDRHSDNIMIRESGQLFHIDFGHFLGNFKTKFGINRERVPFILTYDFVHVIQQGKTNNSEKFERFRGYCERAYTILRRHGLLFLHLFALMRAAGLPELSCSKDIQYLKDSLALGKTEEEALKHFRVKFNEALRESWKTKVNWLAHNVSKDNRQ

Target: PI3K-δ (Homo sapiens, UniProt O00329)
Experiment: Whole blood assay, p-Akt S473 in LPS-stimulated monocytes
Type: cell-based
Design: from tissue; host or cells: whole blood; LPS-stimulated monocytes (gated by flow cytometry)
Conditions: inhibition of p-Akt in LPS-stimulated monocytes, read-out: PI3Kδ IC50

C[C@H](NC(=O)c1c(N)nn2cccnc12)c1cc2cccc(C#Cc3cnn(C)c3)c2c(=O)n1-c1ccccc1 [IPI-549, 2-amino-N-[(1S)-1-[8-[2-(1-methylpyrazol-4-yl)ethynyl]-1-oxo-2-phenylisoquinolin-3-yl]ethyl]pyrazolo[1,5-a]pyrimidine-3-carboxamide]
IC50: 12 ± 0.5 µM
